These results are taken from ChEMBL document CHEMBL4422610, “HDAC as onco target: Reviewing the synthetic approaches with SAR study of their inhibitors” (Eur J Med Chem, 2018).

Sequences of proteins named here, by UniProt entry; tags and fusion partners are left off. A change or cut given only in a name is not applied to a line headed by its entry.
UniProt Q13547: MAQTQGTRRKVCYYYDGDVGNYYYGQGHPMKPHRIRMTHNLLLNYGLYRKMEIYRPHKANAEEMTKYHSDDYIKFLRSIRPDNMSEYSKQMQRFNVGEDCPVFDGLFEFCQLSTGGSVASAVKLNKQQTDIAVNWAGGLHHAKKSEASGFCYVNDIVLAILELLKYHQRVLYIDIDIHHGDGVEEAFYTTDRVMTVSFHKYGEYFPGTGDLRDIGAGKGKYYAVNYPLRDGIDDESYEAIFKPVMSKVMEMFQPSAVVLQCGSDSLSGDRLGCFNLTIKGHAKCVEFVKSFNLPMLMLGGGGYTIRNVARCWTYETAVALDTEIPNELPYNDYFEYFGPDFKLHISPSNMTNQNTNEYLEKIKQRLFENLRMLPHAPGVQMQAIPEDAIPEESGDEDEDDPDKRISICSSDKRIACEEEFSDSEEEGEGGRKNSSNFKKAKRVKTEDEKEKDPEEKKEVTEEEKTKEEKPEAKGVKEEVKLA
UniProt O15379: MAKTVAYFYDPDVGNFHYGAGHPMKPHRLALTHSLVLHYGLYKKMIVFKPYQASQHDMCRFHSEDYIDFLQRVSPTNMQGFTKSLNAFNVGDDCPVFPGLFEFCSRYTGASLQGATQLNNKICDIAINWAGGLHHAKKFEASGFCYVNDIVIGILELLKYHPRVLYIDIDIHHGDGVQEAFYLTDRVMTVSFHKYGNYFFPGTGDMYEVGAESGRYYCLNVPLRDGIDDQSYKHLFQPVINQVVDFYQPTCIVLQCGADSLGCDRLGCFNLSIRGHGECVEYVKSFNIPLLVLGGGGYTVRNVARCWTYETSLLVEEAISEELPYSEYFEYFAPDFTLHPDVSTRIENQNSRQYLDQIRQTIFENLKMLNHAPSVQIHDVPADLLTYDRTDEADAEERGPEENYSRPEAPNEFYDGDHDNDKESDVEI
UniProt Q9UBN7: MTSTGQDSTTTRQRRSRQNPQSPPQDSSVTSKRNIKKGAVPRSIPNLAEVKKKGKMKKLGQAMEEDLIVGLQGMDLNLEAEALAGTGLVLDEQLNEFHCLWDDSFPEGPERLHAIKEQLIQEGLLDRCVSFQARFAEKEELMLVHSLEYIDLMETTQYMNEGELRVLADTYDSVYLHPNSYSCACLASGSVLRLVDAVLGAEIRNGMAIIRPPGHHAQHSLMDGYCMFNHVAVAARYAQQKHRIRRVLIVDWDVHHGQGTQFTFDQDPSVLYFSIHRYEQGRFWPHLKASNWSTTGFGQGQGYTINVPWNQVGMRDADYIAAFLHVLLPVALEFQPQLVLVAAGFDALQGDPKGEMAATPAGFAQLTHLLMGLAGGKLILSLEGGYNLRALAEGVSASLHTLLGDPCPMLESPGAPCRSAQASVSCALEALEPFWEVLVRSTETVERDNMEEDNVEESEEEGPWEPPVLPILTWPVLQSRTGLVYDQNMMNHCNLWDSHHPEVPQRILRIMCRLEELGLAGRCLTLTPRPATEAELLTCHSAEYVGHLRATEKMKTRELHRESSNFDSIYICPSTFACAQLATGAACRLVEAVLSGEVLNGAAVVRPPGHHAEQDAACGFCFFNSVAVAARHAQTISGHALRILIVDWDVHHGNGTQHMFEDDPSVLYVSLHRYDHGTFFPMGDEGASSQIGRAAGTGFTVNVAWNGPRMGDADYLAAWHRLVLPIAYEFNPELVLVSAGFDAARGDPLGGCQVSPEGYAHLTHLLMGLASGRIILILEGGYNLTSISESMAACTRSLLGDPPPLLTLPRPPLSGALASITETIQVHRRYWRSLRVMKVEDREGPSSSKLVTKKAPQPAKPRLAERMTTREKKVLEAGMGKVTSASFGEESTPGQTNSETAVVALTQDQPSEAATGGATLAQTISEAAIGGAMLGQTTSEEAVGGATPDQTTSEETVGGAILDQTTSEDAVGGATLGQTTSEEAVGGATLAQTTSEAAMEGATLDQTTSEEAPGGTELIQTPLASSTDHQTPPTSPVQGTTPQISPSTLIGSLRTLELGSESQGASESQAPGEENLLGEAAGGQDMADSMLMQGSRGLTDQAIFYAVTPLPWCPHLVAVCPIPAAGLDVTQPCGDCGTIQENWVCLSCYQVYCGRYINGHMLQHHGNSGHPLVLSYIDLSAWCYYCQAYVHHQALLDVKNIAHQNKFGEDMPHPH
UniProt Q92769: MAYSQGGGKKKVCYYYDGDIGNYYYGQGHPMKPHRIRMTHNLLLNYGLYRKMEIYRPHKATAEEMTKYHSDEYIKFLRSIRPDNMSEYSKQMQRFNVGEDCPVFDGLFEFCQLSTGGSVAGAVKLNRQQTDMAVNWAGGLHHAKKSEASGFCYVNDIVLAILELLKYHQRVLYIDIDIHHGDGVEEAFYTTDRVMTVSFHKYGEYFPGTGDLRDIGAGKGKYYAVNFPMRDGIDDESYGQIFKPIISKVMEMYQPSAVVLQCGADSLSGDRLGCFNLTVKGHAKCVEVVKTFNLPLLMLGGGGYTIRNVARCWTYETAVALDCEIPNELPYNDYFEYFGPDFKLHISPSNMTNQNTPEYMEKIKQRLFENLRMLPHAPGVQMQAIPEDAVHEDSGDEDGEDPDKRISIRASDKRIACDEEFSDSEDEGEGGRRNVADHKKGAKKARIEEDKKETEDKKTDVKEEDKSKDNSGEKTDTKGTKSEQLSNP
UniProt Q8WUI4: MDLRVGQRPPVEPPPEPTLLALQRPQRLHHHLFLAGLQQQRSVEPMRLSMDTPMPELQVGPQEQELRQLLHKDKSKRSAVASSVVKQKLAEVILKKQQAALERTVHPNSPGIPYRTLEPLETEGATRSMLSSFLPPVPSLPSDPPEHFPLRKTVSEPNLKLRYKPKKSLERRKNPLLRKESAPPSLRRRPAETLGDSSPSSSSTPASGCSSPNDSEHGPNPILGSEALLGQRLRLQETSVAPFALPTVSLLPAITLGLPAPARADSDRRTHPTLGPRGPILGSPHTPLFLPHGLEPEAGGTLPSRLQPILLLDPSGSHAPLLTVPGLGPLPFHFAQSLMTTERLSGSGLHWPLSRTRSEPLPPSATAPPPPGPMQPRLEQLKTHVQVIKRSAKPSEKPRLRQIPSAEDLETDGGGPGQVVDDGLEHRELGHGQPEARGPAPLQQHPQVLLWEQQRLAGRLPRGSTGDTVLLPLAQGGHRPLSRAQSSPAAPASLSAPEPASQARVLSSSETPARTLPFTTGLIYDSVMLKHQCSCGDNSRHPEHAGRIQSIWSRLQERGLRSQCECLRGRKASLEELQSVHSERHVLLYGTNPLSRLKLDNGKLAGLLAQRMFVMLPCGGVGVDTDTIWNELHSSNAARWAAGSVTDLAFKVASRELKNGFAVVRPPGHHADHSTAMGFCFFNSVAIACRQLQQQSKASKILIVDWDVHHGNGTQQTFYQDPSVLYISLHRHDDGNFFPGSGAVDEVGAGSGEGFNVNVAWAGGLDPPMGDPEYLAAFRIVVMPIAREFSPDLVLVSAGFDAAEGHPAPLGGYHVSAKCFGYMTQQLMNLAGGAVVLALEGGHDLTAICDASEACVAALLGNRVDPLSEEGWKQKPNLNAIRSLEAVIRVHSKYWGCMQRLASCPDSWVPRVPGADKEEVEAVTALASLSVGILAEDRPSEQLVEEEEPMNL
UniProt Q9BY41: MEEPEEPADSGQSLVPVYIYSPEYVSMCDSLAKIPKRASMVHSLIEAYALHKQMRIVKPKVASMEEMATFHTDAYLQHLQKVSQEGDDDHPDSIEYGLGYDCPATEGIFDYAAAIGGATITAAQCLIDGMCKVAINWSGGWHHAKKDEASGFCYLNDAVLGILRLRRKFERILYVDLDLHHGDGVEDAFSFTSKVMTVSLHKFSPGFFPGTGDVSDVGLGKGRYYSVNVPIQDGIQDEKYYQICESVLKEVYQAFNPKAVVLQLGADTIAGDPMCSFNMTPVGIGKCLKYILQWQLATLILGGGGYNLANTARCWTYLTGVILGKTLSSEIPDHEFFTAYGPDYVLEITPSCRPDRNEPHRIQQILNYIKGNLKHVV
UniProt Q96DB2: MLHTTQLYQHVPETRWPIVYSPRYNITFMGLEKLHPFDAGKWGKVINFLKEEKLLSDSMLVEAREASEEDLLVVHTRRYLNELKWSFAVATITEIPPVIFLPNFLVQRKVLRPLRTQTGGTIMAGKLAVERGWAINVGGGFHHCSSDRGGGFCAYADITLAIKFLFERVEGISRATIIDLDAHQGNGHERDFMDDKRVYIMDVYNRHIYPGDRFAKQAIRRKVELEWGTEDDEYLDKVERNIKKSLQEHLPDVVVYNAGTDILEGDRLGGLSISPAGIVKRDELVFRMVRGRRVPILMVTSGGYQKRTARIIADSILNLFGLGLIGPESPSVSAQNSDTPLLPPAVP
UniProt P56524: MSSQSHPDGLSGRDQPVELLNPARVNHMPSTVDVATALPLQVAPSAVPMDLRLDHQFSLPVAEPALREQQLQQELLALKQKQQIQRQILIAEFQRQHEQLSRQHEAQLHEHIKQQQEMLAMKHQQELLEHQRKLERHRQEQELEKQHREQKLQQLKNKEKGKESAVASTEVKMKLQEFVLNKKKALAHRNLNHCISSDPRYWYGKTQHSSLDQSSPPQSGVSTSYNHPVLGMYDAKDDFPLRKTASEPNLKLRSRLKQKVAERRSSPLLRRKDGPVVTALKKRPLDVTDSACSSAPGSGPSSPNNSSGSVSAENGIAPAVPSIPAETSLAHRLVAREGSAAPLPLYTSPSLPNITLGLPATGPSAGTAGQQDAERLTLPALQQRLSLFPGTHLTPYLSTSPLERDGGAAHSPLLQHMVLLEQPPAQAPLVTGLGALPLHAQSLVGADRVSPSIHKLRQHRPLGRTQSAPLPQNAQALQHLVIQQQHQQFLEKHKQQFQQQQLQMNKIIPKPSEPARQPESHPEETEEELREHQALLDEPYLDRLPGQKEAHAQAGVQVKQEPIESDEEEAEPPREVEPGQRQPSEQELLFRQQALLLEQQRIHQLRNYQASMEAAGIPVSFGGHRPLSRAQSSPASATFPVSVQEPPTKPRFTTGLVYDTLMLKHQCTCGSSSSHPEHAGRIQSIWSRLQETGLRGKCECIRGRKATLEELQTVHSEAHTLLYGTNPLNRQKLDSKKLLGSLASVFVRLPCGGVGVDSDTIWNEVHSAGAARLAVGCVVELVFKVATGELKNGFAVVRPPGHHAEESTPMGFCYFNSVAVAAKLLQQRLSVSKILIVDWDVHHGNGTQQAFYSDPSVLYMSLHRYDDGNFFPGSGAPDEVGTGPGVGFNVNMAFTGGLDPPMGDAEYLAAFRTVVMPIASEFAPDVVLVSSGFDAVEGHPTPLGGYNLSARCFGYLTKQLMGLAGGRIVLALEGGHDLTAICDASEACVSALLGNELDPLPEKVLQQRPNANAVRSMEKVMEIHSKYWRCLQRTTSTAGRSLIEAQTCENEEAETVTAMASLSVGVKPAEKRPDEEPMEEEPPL
UniProt Q9UKV0: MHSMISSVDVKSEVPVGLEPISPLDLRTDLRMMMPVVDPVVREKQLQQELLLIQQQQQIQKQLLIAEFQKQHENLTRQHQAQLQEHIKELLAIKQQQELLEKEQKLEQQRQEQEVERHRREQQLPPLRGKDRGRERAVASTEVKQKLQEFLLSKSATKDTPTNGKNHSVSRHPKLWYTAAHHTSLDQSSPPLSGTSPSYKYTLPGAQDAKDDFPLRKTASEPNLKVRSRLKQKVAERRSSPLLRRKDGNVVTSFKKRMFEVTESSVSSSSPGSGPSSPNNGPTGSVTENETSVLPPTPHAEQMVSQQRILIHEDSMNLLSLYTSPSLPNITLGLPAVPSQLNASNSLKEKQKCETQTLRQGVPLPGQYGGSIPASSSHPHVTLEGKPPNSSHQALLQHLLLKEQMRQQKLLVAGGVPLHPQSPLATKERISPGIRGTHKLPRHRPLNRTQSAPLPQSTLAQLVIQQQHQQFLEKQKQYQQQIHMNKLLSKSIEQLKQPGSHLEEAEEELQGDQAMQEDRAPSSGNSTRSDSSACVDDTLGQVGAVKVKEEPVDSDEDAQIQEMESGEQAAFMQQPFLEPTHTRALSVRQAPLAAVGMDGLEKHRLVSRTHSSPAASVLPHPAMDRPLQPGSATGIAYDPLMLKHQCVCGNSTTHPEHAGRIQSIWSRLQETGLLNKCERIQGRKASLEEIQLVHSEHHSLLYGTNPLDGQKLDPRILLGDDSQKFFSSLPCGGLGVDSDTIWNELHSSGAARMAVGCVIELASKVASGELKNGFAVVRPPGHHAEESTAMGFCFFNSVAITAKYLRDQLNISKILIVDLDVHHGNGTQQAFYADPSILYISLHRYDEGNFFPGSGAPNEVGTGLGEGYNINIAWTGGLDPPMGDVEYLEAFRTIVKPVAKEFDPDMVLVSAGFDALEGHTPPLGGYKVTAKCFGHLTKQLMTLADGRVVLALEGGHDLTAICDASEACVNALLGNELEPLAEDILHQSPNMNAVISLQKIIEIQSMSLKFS

This test has as its target Histone deacetylase (Homo sapiens) (UniProt Q13547+O15379+Q9UBN7+Q92769+Q9UQL6+Q8WUI4+Q9BY41+Q96DB2+P56524+Q9UKV0+Q969S8). The test is described as follows: Potency index, ratio of SAHA effect to test compound effect for inhibition of HDAC in human HeLa nuclear extract. In kind it is cell-based.

Consider `O=C(CCCCCCn1cc(-c2ccccc2)nn1)NO`, for which the Ratio is 4.
For the compound `COc1ccc(-c2cn(CCCCCCC(=O)NO)nn2)cc1`, the Ratio was determined as 2.
